# Yeast mating assay 2: variants of the scFv Ab-95

Source: Engelhart et al. 2022 (doi:10.1038/s41597-022-01779-4), MIT Lincoln Laboratory and A-Alpha Bio; data file from the FLAb repository.

Antigen: PDVDLGDISGINAS, a 14-residue peptide of the SARS-CoV-2 spike HR2 region.

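The parent was found by panning a naive human phage display library on the peptide. Library AAYL52 holds single substitutions and randomly drawn double and triple substitutions in the CDRs. The assay is AlphaSeq: two haploid yeast populations carry antibody and antigen on their surface. Mating (16 h, 30 °C) was followed by selection of diploids and sequencing of their barcodes. The ratio of observed to expected reads was calibrated, replicate by replicate, on BCL2-family standards whose Kd was known from biolayer interferometry. There are three technical replicates.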

Parent scFv Ab-95: VH joined to VL by a (GGGGS)3 linker. Changes lie in the light chain CDRs alone.
VH: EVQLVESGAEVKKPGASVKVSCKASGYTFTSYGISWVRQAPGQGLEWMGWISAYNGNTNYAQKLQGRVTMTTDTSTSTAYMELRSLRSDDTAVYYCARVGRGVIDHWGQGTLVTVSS
VL: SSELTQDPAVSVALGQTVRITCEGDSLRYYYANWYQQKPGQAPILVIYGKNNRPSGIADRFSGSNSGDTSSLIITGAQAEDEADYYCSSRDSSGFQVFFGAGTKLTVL

Substitutions are numbered in sequence along the VL above, starting at 1 (not Kabat). Affinities are written as log10 Kd with Kd in nM; a lower number is a better binder. A pair that was not seen in that replicate is written "n.d."; this usually means weak binding, but a binder can also be missed. For reference, the parent read 2.31 as the reference entry and 2.25 as a member of this library. Background: pairings of library AAYL52 with three empty control strains gave a value in 28% of cases (median 3.91, 5th percentile 2.90). Values in that range, when seen in few replicates, are hard to tell from nonspecific mating. Also given: how often the same scFv was detected with the empty control strains, with their mean in brackets.

changes	replicates, log10 nM	control signals
S26Q/Y29D/D91I	3.10 3.42 n.d.	5 of 9 (3.82)
Y29L/N33V/F95Q	n.d. n.d. n.d.	2 of 9 (4.37)
Y29W/N51E	2.78 3.18 2.73	3 of 9 (4.61)
D25K/N33Q	n.d. 2.83 3.35	2 of 9 (4.57)
E23R/A32C/V97H	2.95 2.41 1.93	2 of 9 (2.86)
R53P/S92Y/V97S	n.d. n.d. 4.73	3 of 9 (3.93)
Y31T/G49L/K50T	n.d. n.d. n.d.	1 of 9 (4.13)
G49F/N51L/S88M	n.d. 4.00 n.d.	1 of 9 (3.14)
E23F/N33L/D91R	n.d. 4.00 3.58	3 of 9 (3.39)
S26A/A32F	4.05 n.d. 3.69	4 of 9 (3.95)
E23C/D25H/N33E	n.d. n.d. n.d.	1 of 9 (3.05)
S26I/S55E/S88N	3.56 3.85 n.d.	2 of 9 (3.82)
R28G/Y30I/S88E	2.91 2.50 3.04	2 of 9 (3.14)
G24K/R28S/K50V	n.d. n.d. n.d.	3 of 9 (4.47)
E23S/A32Q/N51Y	n.d. n.d. n.d.	3 of 9 (4.14)
Y29I/K50Y/N51A	n.d. n.d. n.d.	2 of 9 (3.32)
D25R/S26K/Y31G	4.60 n.d. n.d.	2 of 9 (4.30)
G49L/S92H/F95T	4.79 4.15 n.d.	4 of 9 (3.96)
A32Y/N51F/S55T	3.48 3.40 n.d.	4 of 9 (4.29)
Y30R/R53L/V97H	2.25 2.31 2.77	4 of 9 (3.89)
E23R/S89P/V97P	2.73 2.45 2.40	2 of 9 (4.07)
Y29V/G49M	4.04 n.d. n.d.	1 of 9 (3.67)
D25F/G49T/G94H	3.16 2.76 n.d.	4 of 9 (3.73)
Y30R/N52Y/F95T	2.65 2.34 1.89	2 of 9 (4.57)
R53M/F95W	n.d. n.d. n.d.	0 of 9
G24F/G49S/F98Q	n.d. 3.97 3.99	1 of 9 (3.23)
G49I/V97A/F98T	n.d. n.d. n.d.	3 of 9 (4.12)
Y30V/P54R/S93P	n.d. n.d. 4.30	2 of 9 (4.43)
A32S/S55M/F95K	3.83 n.d. n.d.	0 of 9
R28K/R53V/F95C	3.97 n.d. n.d.	1 of 9 (3.59)
R28F/K50C/F95R	3.44 2.73 3.33	6 of 9 (4.28)
E23L/S89D/F95K	4.58 n.d. n.d.	1 of 9 (3.71)
E23M/N33A/S92T	3.15 3.11 3.37	4 of 9 (4.15)
R90W/S93F/F95D	2.31 3.55 n.d.	2 of 9 (3.27)
E23Y/A32K/S93M	n.d. n.d. n.d.	1 of 9 (4.58)
Y31T/F95G/F98I	3.60 n.d. 2.89	1 of 9 (4.97)

From the list, the first 5 with no signal in any replicate:

changes	replicates, log10 nM	control signals
Y29L/N33V/F95Q	n.d. n.d. n.d.	2 of 9 (4.37)
Y31T/G49L/K50T	n.d. n.d. n.d.	1 of 9 (4.13)
E23C/D25H/N33E	n.d. n.d. n.d.	1 of 9 (3.05)
G24K/R28S/K50V	n.d. n.d. n.d.	3 of 9 (4.47)
E23S/A32Q/N51Y	n.d. n.d. n.d.	3 of 9 (4.14)